Test results taken from US7119100B2 (priority 2001, dated 2006).
Like-named read-outs stand apart in the source and are kept apart here. Some compounds may have been tested in ways that are not shown here.

Experiments:
mice [1] = test: acetic acid writhing test
mice [2] = test: mice 55° C. hot plate test (sc/po)
Wistar rats [3] = test: rat 55° C. hot water bath test
Wistar rats [4] = test: self-administration testing in rat; conditions: I1 0.05, 0.08, 0.1 mg·kg^−1, continuous 35–40 days session
rhesus monkey = test: substitution test in rhesus monkey self-administering morphine; conditions: I1 0.025, buprenorphine 0.05 mg·kg^−1/inject, morphine 0.25 mg/kg/inject
[5] = tested on: opiate receptors of rat brain; test: 3H-naloxone binding, Na+ index determination; conditions: for IC50: 5 nmol·L^−1 3H-naloxone, rat brain membrane
[6] = background art; cited from earlier work
rats = test: rat formaldehyde test
Swiss mice = test: conditioned place preference testing in mice; conditions: morphine 10, buprenorphine 0.3, I1 3 and 10 mg·kg^−1
mice [7] = test: tail-flick test, s.c. and p.o. administration

In the case of buprenorphine, the “acetic acid writhing test ED50” value (mice [1]) is reported as 0.0073 mg/kg, the “acetic acid writhing test Max. efficacy” value (mice [1]) is reported as 92.5% and the “ED50 P.O” value (mice [1]; Acetic Writhing, p.o.) is reported as 0.37 mg/kg. For the same substance, the “ED50 S.C” value (mice [1]; Acetic Writhing, s.c.) was 0.02 mg/kg, the “acetic acid writhing test Max. efficacy” value (mice [1]; listed as Bup) was 90% and the “hot plate test ED50” value (mice [2]; 55° C.) was 1.1 mg/kg. For the same substance, the “hot plate test Max. efficacy” value (mice [2]; 55° C.) was 40.3%, the “hot plate test Max. efficacy” value (mice [2]; 55° C., listed as Bup) was 40% and the “ED50 P.O” value (mice [2]; Hot plate, p.o.) was 12.52 mg/kg. For the same substance, the “ED50 S.C” value (mice [2]; Hot plate, s.c.) was 1.01 mg/kg, the “hot water bath test ED50” value (Wistar rats [3]) was 8.75 mg/kg and the “hot water bath test Max. efficacy” value (Wistar rats [3]) was 64.7%. The induction of self-administration (Wistar rats [4]) was “couldn't induce self-administration”, the “self-administration in the place of morphine” value (rhesus monkey) was “could continue self-administration” and the “Na^+ index” value ([5]; ratio of IC50 in presence of NaCl to IC50 in absence) was 0.67. The IC50 ([5]; read-out: IC50 Free of Na^+, no NaCl) was 0.45 nM, the IC50 ([5]; read-out: IC50 Presence of Na^+, 100 nmol·L^−1 NaCl) was 0.3 nM and the loss weight (Wister rats; Tid × 7d: morphine 30, buprenorphine 5, I1 3 mg·kg^−1, naloxone) was 4.2 ± 2.5 g. For the same substance, the loss weight (Wister rats; Tid × 14d: morphine 30, buprenorphine 5, I1 3 mg·kg^−1, naloxone) was 4.2 ± 1.3 g, the bioavailability [6] was “low bioavailability” and the “formaldehyde test ED50” value (rats) was 0.34 mg/kg. For the same substance, the “formaldehyde test Max. efficacy” value (rats) was 97.7%, the “induction of Conditioned Place Preference” value (Swiss mice) was “induced significant Conditioned Place Preference” and the “effect p.o. where no ED50 is given (footnote)” value (mice [7]; p.o.) was “*<30%”. The “ED50 S.C” value (mice [7]; s.c.) was 8.75 mg/kg.
